An excerpt weighted towards active compounds, which were near 1.1% of everything screened.
PINK1 expr mod: changes PINK1 expression; PINK1 immunofluorescence, high-content cytometry, 24 h; Potency, µM (doses to about 76.6 µM), for inactives: at the highest dose activation (PINK1 increase), hits mostly activators; 410,000 compounds, 0.2% hits; AID 624263; active means well fitted activation curve with a large enough effect; inconclusive means small, poorly fitted or top-dose-only effect; cell line not stated here; further: potency means the concentration at half of the fitted maximal effect; % of control where 0% means no effect; nearly all actives have a fitted effect of over 65% in size
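Stable cell line, 250 cells/well, 12 h attachment; compounds pinned at 5 concentrations, 24 h; CCCP control. Fixed with nuclear dye, primary antibodies 12 h at 10 degrees C, secondary plus cell stain; laser-scanning cytometer read.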
GALK inh: galactokinase (human) inhibition; Purified GALK, Kinase-Glo residual ATP luminescence; P51570; Potency, µM (top dose mostly 57.5 µM), for the others: at the top dose activity change, negative = inhibition, usual class: inhibitors; AID 1868; 270,000 compounds, 0.007% hits; further: potency means the concentration at half of the fitted maximal effect; on the % scale 0 is the no-effect control and ±100 the full control effect
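Kinase-Glo Plus luminescence measured ATP left after a 1 h room-temperature reaction. The reaction used 5 nM GALK, 100 uM galactose and 35 uM ATP at pH 8.0 (20 mM HEPES, 5 mM MgCl2, 60 mM NaCl, 1 mM DTT, 0.01% BSA).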
miR-21 FLuc: miR-21 reporter, rising signal. HeLa miR-21 FLuc reporter, luciferase, 48 h. Potency, µM (titrated, usually from 38.3 µM), without a hit: at the top dose reporter change, positive = more light. 340,000 tested, under 10 active. AID 2288; active = well fitted rising curve with a large enough effect; inconclusive = small, poorly fitted or top-dose-only effect; inactive = no such curve, though single readings can be large or run the other way;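 also: % of control where 0% means no effect; miR-21 action dims this reporter so a rising signal means less miR-21 action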
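Luminescence from a firefly luciferase reporter carrying a miR-21 binding site downstream, stably expressed under a CMV promoter in HeLa cells that make miR-21 endogenously, reports miRNA modulation after 48 h compound exposure up to approximately 40uM final.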
TrxR1 substrate: substrates of rat thioredoxin reductase 1; AID 588456; purified TrxR1 substrate turnover, NADPH consumption readout; 390,000 compounds, 0.01% hits; Potency, µM (series often up to 114 µM), without a hit: top-dose activity change, negative = substrate turnover; O89049; further: potency means the concentration at half of the fitted maximal effect; on the % scale 0 is the no-effect control and ±100 the full control effect; nearly all actives have a fitted effect of over 50% in size
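Rat TrxR1, dispensed at 90 nM, was prereduced with 400 uM NADPH (final) for 5 min at ~22 deg C, then incubated with compound 15 min before 400 uM selenite. A first-read NADPH fluorescence drop versus no-compound background flagged substrates.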
rTrxR1 inhibitor: rat TrxR1 inhibition | O89049 | 390,000 compounds, 1% hits | AID 588453 | Potency, µM (top dose mostly 114 µM), for the others: at the highest dose activity change, negative = inhibition, most hits filed as inhibitors | recombinant rTrxR1, NADPH fluorescence consumption, selenite substrate; further: potency means the concentration at half of the fitted maximal effect; on the % scale 0 is the no-effect control and ±100 the full control effect; nearly all actives have a fitted effect of over 65% in size
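Rat TrxR1 (90 nM in the dispensed reagent) was pre-reduced with 400 uM NADPH for 5 min at room temperature, then incubated with compound for 15 min. After 400 uM selenite was added, NADPH fluorescence (Ex 340/Em 450 nm) was followed for 8 min.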
Numbers without * were called inactive; [ ] = dose if it differs, or a comment. Unless noted, the call rests on the fitted dose curve; in most records, active means well fitted curve in the direction sought with a large enough effect; inconclusive means small, poorly fitted or top-dose-only effect, or another doubt; inactive means no such curve, though single readings can be large; an effect the other way counts as inactive or inconclusive.

`CCCCS/C(=C(/C#N)C(N)=O)c1cc2c([nH]1)CCCC2` gave PINK1 expr mod 3%, GALK inh 0%, miR-21 FLuc inconclusive, TrxR1 substrate -13% and rTrxR1 inhibitor 45µM*.
`Cc1ccc2c(c1C)-c1c(ccc(C)c1C)C(=O)C2=O` gave PINK1 expr mod -2%, TrxR1 substrate 45µM* and rTrxR1 inhibitor inconclusive.
Screening O=[N+]([O-])c1ccc(O)c(C2=NNC(c3ccccc3F)C2)c1 (stereo not drawn) returned PINK1 expr mod inconclusive, GALK inh -2%, miR-21 FLuc -9%, TrxR1 substrate -1% and rTrxR1 inhibitor 35µM*.
CCc1ccccc1N1CC23C=CC(O2)C(C(=O)OCC(C)C)C3C1=O (stereo not drawn) was read as PINK1 expr mod 1%, GALK inh 0%, miR-21 FLuc 2%, TrxR1 substrate 9%[57.1 µM] and rTrxR1 inhibitor 25%[57.1 µM].
For O=C1C2C3C=CC(CO)(O3)C2C(=O)N1c1ccc(-c2ccccc2)cc1 (stereo not drawn) the results were GALK inh 3% and miR-21 FLuc 2%.
Cc1ccc(N2C(=O)C3C4C=CC(CNC(=S)Nc5cccc(Cl)c5)(O4)C3C2=O)cc1 (stereo not drawn) was read as PINK1 expr mod 7%, GALK inh 0%, miR-21 FLuc -3%, TrxR1 substrate -14% and rTrxR1 inhibitor 7.9µM*.
Cc1ccc(N2C(=O)C3C4C=CC(CNC(=S)Nc5ccc(Cl)cc5)(O4)C3C2=O)cc1 (stereo not drawn) was read as PINK1 expr mod 1%, GALK inh 1%, miR-21 FLuc 6%, TrxR1 substrate -2% and rTrxR1 inhibitor 28µM*.
`CC(C)COC(=O)NCC12C=CC(O1)C1C(=O)N(c3ccc(Cl)cc3)C(=O)C12` (stereo not drawn) gave PINK1 expr mod 12%, GALK inh 0%, miR-21 FLuc 1%, TrxR1 substrate 13%[57.1 µM] and rTrxR1 inhibitor 14µM*.
Screening CC(C)(C)C(=O)NCC12C=CC(O1)C1C(=O)N(c3ccccc3)C(=O)C12 (stereo not drawn) returned PINK1 expr mod inconclusive, GALK inh 0%, miR-21 FLuc -4%, TrxR1 substrate 1% and rTrxR1 inhibitor 18µM*.
For CCN(CC)C1CCN(C(=O)c2cnn(-c3nccc(-c4ccco4)n3)c2C(C)C)C1 (stereo not drawn) the results were PINK1 expr mod 0%.
Screening O=C(Nc1cccc2ccccc12)c1cnn2c1NC(=C1CC1)C=C2C(F)F returned PINK1 expr mod -1%, TrxR1 substrate 2% and rTrxR1 inhibitor 16%.
`Cc1ccc(C)c(NC(=S)N2CCN(c3ccccn3)CC2)c1` gave PINK1 expr mod 0%, GALK inh 0%, miR-21 FLuc -1%, TrxR1 substrate 7% and rTrxR1 inhibitor 29%.
Cc1ccc(N2C(=O)C3C4C=CC(CNC(=S)N5CCN(c6ccccn6)CC5)(O4)C3C2=O)cc1 (stereo not drawn) was read as PINK1 expr mod 5%, GALK inh 11%, miR-21 FLuc 0%, TrxR1 substrate 5% and rTrxR1 inhibitor 11µM*.
Screening Cc1ccc(N2C(=O)C3C4C=CC(CNC(=S)Nc5ccc(F)cc5)(O4)C3C2=O)cc1 (stereo not drawn) returned PINK1 expr mod 3%, GALK inh 2%, miR-21 FLuc -1%, TrxR1 substrate -12% and rTrxR1 inhibitor 16µM*.
CC(=O)c1ccc(-c2ccc3c4c(ccc3c2)OC(CNC(=O)C(C)N2CCOCC2)C4)s1 (stereo not drawn) was read as PINK1 expr mod -1%.
Screening Oc1ccc(CNc2ccccc2)c2cccnc12 returned PINK1 expr mod inconclusive, GALK inh 5%, miR-21 FLuc 29%, TrxR1 substrate -4% and rTrxR1 inhibitor inconclusive.
For Cc1cccc(NCc2ccc(O)c3ncccc23)c1 the results were PINK1 expr mod 17%, GALK inh 6%, miR-21 FLuc 18%, TrxR1 substrate 4% and rTrxR1 inhibitor 0.79µM*.

Three entries from above, ordered by length of the SMILES, low to high:
Screening Oc1ccc(CNc2ccccc2)c2cccnc12 returned PINK1 expr mod inconclusive, GALK inh 5%, miR-21 FLuc 29%, TrxR1 substrate -4% and rTrxR1 inhibitor inconclusive.
For Cc1cccc(NCc2ccc(O)c3ncccc23)c1 the results were PINK1 expr mod 17%, GALK inh 6%, miR-21 FLuc 18%, TrxR1 substrate 4% and rTrxR1 inhibitor 0.79µM*.
CC(=O)c1ccc(-c2ccc3c4c(ccc3c2)OC(CNC(=O)C(C)N2CCOCC2)C4)s1 (stereo not drawn) was read as PINK1 expr mod -1%.

From PubChem BioAssay
